The values that follow are results of earlier work, collected in patent US20260382653A1, “METHOD AND COMPOSITIONS FOR TREATING BURN WOUNDS” (published 2026).

The test system of the series is burn wound patients.

In the case of `Nc1ccc(S(=O)(=O)Nc2ncccn2)cc1.[Ag]`, under “depending on the amount applied”, the cytotoxicity result is “has been shown to be cytotoxic”. The allergic reaction result (some burn wound patients) is “may cause an allergic reaction”.
